# AlphaSeq binding of Ab-14 heavy chain variants to a spike HR2 peptide

Data: MIT Lincoln Laboratory AlphaSeq set, Engelhart et al. 2022, doi:10.1038/s41597-022-01779-4, as distributed in FLAb.

The target is the same throughout: PDVDLGDISGINAS, from the HR2 region of SARS-CoV-2 spike.

Parent: Ab-14, a human scFv built as VH, the linker GGGGSGGGGSGGGGS, VL. Only the CDRs of the heavy chain vary.
VH: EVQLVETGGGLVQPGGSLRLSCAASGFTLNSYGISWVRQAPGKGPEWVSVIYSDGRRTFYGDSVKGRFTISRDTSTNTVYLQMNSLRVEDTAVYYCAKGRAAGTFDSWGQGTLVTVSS
VL: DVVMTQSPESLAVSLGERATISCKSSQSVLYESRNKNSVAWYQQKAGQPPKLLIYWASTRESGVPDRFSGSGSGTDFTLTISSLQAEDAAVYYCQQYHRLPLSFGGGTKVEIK

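The library (AAYL49) carries one to three amino acid substitutions per variant, with no insertions or deletions. Affinity was read by AlphaSeq, a pooled yeast mating assay with surface-displayed partners. After mating in shaken culture at 30 °C for 16 h, diploids were selected and their barcode pairs sequenced. Each replicate has its own calibration line, from reference interactions of the BCL2 family. There are three technical replicates.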

Substitutions are numbered in sequence along the VH above, starting at 1 (not Kabat).
The Kd shown is the geometric mean over detected replicates; a lower Kd is a better binder.
"no signal" marks a missing value. The strain was present, yet no cells mated with the target were sequenced in any replicate, which points to weak or no binding.
In this assay the parent's reference entry averaged 4.4 nM; its copy inside this library read 13 µM (one replicate of three).
Empty control strains, which show no peptide, gave a signal in 15% of pairings with library AAYL49; the median was 11 µM and 95% of these signals were weaker than 680 nM. No background was subtracted.

| changes | Kd (apparent) | detected |
|---|---|---|
| V50E A102D | 1.9 µM | 1 of 3 |
| L29S S31L D54V | 29 µM | 3 of 3 |
| T58V A101R G103H | no signal | 0 of 3 |
| D62N G103L S107Q | no signal | 0 of 3 |
| S53P D62M R100E | no signal | 0 of 3 |
| R57L K65F R100Q | no signal | 0 of 3 |
| G99L G103L D106I | no signal | 0 of 3 |
| Y32V I34G S107D | no signal | 0 of 3 |
| F27G S63A | 120 nM | 3 of 3 |
| K65L G99F A102I | no signal | 0 of 3 |
| Y60V A102E | 130 nM | 3 of 3 |
| G55A R56C R57Y | no signal | 0 of 3 |
| Y32G A101C | no signal | 0 of 3 |
| T28W S31F S35C | 890 nM | 1 of 3 |
| G26D R57A T104Q | no signal | 0 of 3 |
| I34Q G61V F105G | 17 µM | 1 of 3 |
| N30M G33Q Y52S | 1.4 µM | 1 of 3 |
| I34S Y52I R56I | no signal | 0 of 3 |
| L29G N30H G33D | no signal | 0 of 3 |
| F27A R57Y R100E | no signal | 0 of 3 |
| V64I S107L | no signal | 0 of 3 |
| L29D G33D G61F | 390 nM | 1 of 3 |
| F27C Y52G V64M | 87 µM | 1 of 3 |
| S35E V50E G61R | 3.1 µM | 1 of 3 |
| D54V G61K S63F | 900 µM | 1 of 3 |
| I51T R57Q V64N | 48 µM | 2 of 3 |
| G55A R57A A101N | no signal | 0 of 3 |
| V50H D62E S107R | 21 µM | 1 of 3 |
| Y52F G103L F105G | no signal | 0 of 3 |
| S35M V50C R56W | 16 µM | 1 of 3 |
| F27D F59I A101C | 5.6 µM | 3 of 3 |
| F27Q R56Q F59T | 51 µM | 3 of 3 |
| S35K Y60D S107C | no signal | 0 of 3 |
| S53D T104H F105L | 410 µM | 1 of 3 |
| L29K F59K K65G | 200 µM | 1 of 3 |
| Y32M R56A R100T | 45 nM | 3 of 3 |
| G26W F27W D62G | 320 nM | 3 of 3 |
| G26M R56H V64M | 57 µM | 2 of 3 |
| V50L A102D S107A | 430 nM | 1 of 3 |
| F27H N30I Y60K | 26 µM | 2 of 3 |
| Y32K G55M A102I | no signal | 0 of 3 |
| S35M S63M K65T | 230 µM | 3 of 3 |
| R57G T58Q D106P | 5.6 µM | 2 of 3 |
| F27C I34G R100G | no signal | 0 of 3 |
| Y32E S35R A102V | 5.5 µM | 1 of 3 |
| F27V F59G G61L | 220 nM | 3 of 3 |
| Y60H V64K D106G | 25 µM | 1 of 3 |
| N30I Y32W | no signal | 0 of 3 |
| Y32S G99Q A102D | 58 µM | 3 of 3 |
| N30A S35Y I51H | no signal | 0 of 3 |
| F27E Y52G S63I | no signal | 0 of 3 |
| V50S S63D A102P | no signal | 0 of 3 |
| D62K K65E A102F | 1.2 µM | 2 of 3 |
| L29M G61A D106F | 11 nM | 3 of 3 |
| F27I N30Y V64H | no signal | 0 of 3 |
| F27D T28S A102S | no signal | 0 of 3 |
| N30H V64K K65S | no signal | 0 of 3 |
| T28V D54K D106W | no signal | 0 of 3 |

Again, the first 10 entries without any signal:

{"changes": "T58V A101R G103H", "Kd (apparent)": "no signal", "detected": "0 of 3"}
{"changes": "D62N G103L S107Q", "Kd (apparent)": "no signal", "detected": "0 of 3"}
{"changes": "S53P D62M R100E", "Kd (apparent)": "no signal", "detected": "0 of 3"}
{"changes": "R57L K65F R100Q", "Kd (apparent)": "no signal", "detected": "0 of 3"}
{"changes": "G99L G103L D106I", "Kd (apparent)": "no signal", "detected": "0 of 3"}
{"changes": "Y32V I34G S107D", "Kd (apparent)": "no signal", "detected": "0 of 3"}
{"changes": "K65L G99F A102I", "Kd (apparent)": "no signal", "detected": "0 of 3"}
{"changes": "G55A R56C R57Y", "Kd (apparent)": "no signal", "detected": "0 of 3"}
{"changes": "Y32G A101C", "Kd (apparent)": "no signal", "detected": "0 of 3"}
{"changes": "G26D R57A T104Q", "Kd (apparent)": "no signal", "detected": "0 of 3"}